Measurements published in patent US20240207285A1 (Melt Pharmaceuticals, Inc., priority 2022, published 2024).

Experiment: Phase 1 relative bioavailability study: plasma pharmacokinetics of midazolam, 1-hydroxymidazolam, ketamine and norketamine
Details: Treatment C: midazolam 3.5 mg IV; mean
Procedure: PK analysis was performed using noncompartmental methods in Phoenix WinNonlin® (Version 8.1, Certara, L.P.) in conjunction with the internet-accessible implementation of the Pharsight® Knowledgebase Server™ (PKSO; Version 4.0.4, Certara, L.P). PKSO provides protected and structured storage, audit trails, and version control for study data, analyses, and related files, supporting 21 CFR Part 11 compliance. The analysis was performed in accordance with the Statistical Analysis Plan (Version 1.0, 5 Jan. 2021).
During the PK analysis, concentrations below the limit of quantitation (BLQ) up to the time of the first quantifiable concentration were treated as zero. Embedded (values between 2 quantifiable concentrations) and terminal BLQ concentrations were treated as “missing”. Calculation of the PK characteristics were based on actual elapsed times [h] (relative to time of dose).
All PK analyses were performed on the data from the PK Analysis Population. […] The ANOVA model included factors for sequence, subject within sequence, treatment, and period.

Cc1ncc2n1-c1ccc(Cl)cc1C(c1ccccc1F)=NC2 [Midazolam, 8-chloro-6-(2-fluorophenyl)-1-methyl-4H-imidazo[1,5-a][1,4]benzodiazepine]
Tlast, midazolam: 23.4 h
